Sampled rows, rich in hits. Any-hit rate of the full collection: about 0.45%.
Tn6 DDE FP: disrupts Tn6 cyclic peptide binding to fibrin D-Dimer-E complex; 0.21% of 370,000 active; Fibrin DD(E) TRITC-Tn6 fluorescence polarization displacement; inhibition, % at 8.3 µM; P02675; AID 720509;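 active = inhibition above a per-campaign cutoff: mean of compounds within control limits plus 3 SD, cut at about 15% in these data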
Yeast UUG start: modulators of yeast start codon fidelity, primary screen, whole organism, S. cerevisiae, single point, plate reader; S. cerevisiae UUG-firefly luciferase reporter, luminescence/redox ratio; activity score, % at 18.7 µM; 0.13% of 350,000 active; AID 602363, 2012;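 active = replicate mean at a twofold rise or more, about +100% in these data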;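 also: firefly luciferase made from a UUG start codon reports start codon fidelity; reporter light over untreated wells divided by growth signal over untreated wells; some hits fall short of that in this replicate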
Tn7 DDE FP: inhibitors of Tn7 peptide binding to human fibrin DD(E); P02675; FP displacement of FITC-Tn7 peptide from fibrin DD(E); 0% = median of compound wells per plate; inhibition, % at 8.3 µM; 0.13% of 370,000 active; AID 720508;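 active = inhibition above the mean of compounds falling within the control limits plus 3 SD of them, cut at about 14% in these data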
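system = human fibrin DD(E) protein | quantity = DD(E) 2 µM final | medium = Tris/NaCl/CaCl2 buffer, pH 7.8 | also added = labelled Tn7 tracer, 0.1 µM | compound dosing = single point at 8.3 µM | timing = compound with protein 10 min, then 3 h after probe, room temperature | signal = FP measurement | benchmarks = Aha-Tn7 high control | repeats = one replicate per compound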
PglD DTNB: PglD (C. jejuni) enzyme inhibition | purified PglD enzyme, DTNB colorimetric CoA detection | inhibition, % at 12.5 µM | 0.098% of 360,000 active | AID 602405; in the data active = inhibition above about 16%, passing the limit was not always enough
Tn7 DDE conf: confirmation of inhibitors of Tn7 binding to human fibrin DD(E); shares compounds with Tn7 DDE FP; inhibition, % at 8.3 µM; AID 720628; 5% of 460 active; FP displacement of TRITC-Tn7 peptide from DD(E); 0% set at plate's compound-well median;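 active = inhibition above the campaign cutoff, the mean of compounds within control limits plus 3 SD, cut at about 14% in these data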;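 note: displacers lower polarization since freed probe rises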
Tn7 DDE ctr: counter-screen for inhibitors of Tn7 peptide binding to fibrin DD(E). shares compounds with Tn7 DDE FP. TRITC-Tn7 probe displacement, fluorescence polarization. inhibition, % at 8.3 µM. 3% of 460 active;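 active = inhibition above the cutoff, the mean of compounds lying between the control bounds plus 3 SD of those compounds, cut at about 17% in these data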
DDE Tn6 FP ctr: counter-screen hit for Tn6 peptide-fibrin DD(E) binding disruption | TRITC-Tn6 fluorescence polarization displacement; 0% = median of compound wells, not DMSO | inhibition, % at 8.3 µM | 2% of 680 active | shares compounds with Tn6 DDE FP;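 active = inhibition above the mean of test compounds lying between the control limits plus 3 SD of those, cut at about 14% in these data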
DDE Tn6 confirm: confirmation of inhibitors of Tn6 binding to human fibrin DD(E); inhibition, % at 8.3 µM; shares compounds with Tn6 DDE FP; FP displacement of TRITC-Tn6 peptide from DD(E); 0% = per-plate median of test wells; 10% of 680 active; AID 720631;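 active = inhibition above the mean of compounds lying within the control limits plus 3 SD, cut at about 16% in these data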
Of the large screens only hits and unclear results are named; the others gave an inactive call (follow-up assays come after a bar, where they were run).

CC1(C)CC(=O)C(C=Nc2ccc(C(=O)c3ccccc3)cc2N=CC2=C(O)CC(C)(C)CC2=O)=C(O)C1	Tn6 DDE FP 19.2, Tn7 DDE FP 13.9 (no result: Yeast UUG start, PglD DTNB) | Tn7 DDE conf inactive | Tn7 DDE ctr inactive | DDE Tn6 FP ctr inactive | DDE Tn6 confirm inactive
CCNc1ccc2noc3c2c1C(=O)c1ccccc1-3	Tn6 DDE FP active, Tn7 DDE FP 16.8 (no result: Yeast UUG start, PglD DTNB) | Tn7 DDE conf 53.3 | Tn7 DDE ctr 93.2 | DDE Tn6 FP ctr 53.3 | DDE Tn6 confirm 93.2
O=C1c2ccccc2-c2onc3ccc(N4CCCC4)c1c23	Tn6 DDE FP 100.4, Tn7 DDE FP 32.5 (no result: Yeast UUG start, PglD DTNB) | Tn7 DDE conf inactive | Tn7 DDE ctr 93.2 | DDE Tn6 FP ctr inactive | DDE Tn6 confirm 93.2
CN1C(=O)c2cc(NC(=O)C3CC3)ccc2OC[C@H]2O[C@H](CC(=O)NCCN3CCCC3)CC[C@@H]21	none (no result: Tn6 DDE FP, Tn7 DDE FP)
COC(=O)CCC(=O)Nc1ccc(Cl)c(Cl)c1	none (no result: Yeast UUG start, PglD DTNB)
COC(=O)CC1(C(=O)OC)Nc2cc(Cl)c(Cl)cc2S(=O)(=O)N1O (stereo not given)	Tn6 DDE FP 124.4, Tn7 DDE FP 87.8 | Tn7 DDE conf 59.5 | Tn7 DDE ctr 57.9 | DDE Tn6 FP ctr 59.5 | DDE Tn6 confirm 57.9
CC(C)C#Cc1cnc2c(c1)C(=O)N([C@H](C)CO)C[C@@H](C)[C@H](CN(C)C(=O)Cc1ccccn1)O2	none (no result: Tn6 DDE FP, Tn7 DDE FP)
COc1ccc2ccccc2c1C(O)c1nccn1C (stereo not given)	Tn6 DDE FP 17.2, Tn7 DDE FP 32.7 | Tn7 DDE conf 16.8 | Tn7 DDE ctr inactive | DDE Tn6 FP ctr 16.8 | DDE Tn6 confirm inactive
Cn1ccnc1C(O)c1ccccc1 (stereo not given)	none
C[C@H]1CN([C@@H](C)CO)S(=O)(=O)c2ccc(C#Cc3ccc(F)cc3)cc2O[C@@H]1CN(C)C(=O)CN(C)C	none (no result: Tn6 DDE FP, Tn7 DDE FP)
COc1ccccc1Oc1ccc(S(=O)(=O)NCc2ccccn2)cc1	Tn6 DDE FP 15.3 (no result: Yeast UUG start, PglD DTNB) | DDE Tn6 FP ctr inactive | DDE Tn6 confirm inactive
O=C(COC(=O)/C=C/c1ccco1)Nc1ncc(C(F)(F)F)cc1Cl	Tn6 DDE FP 15.9 | DDE Tn6 FP ctr inactive | DDE Tn6 confirm inactive
CCOc1ccc2noc3c2c1C(=O)c1ccccc1-3	Tn6 DDE FP 41.1 | DDE Tn6 FP ctr 53.3 | DDE Tn6 confirm inactive
Cn1c(N)c(C(=O)COC(=O)CC2CC3CCC2C3)c(=O)n(C)c1=O (stereo not given)	Tn6 DDE FP 15.5 | DDE Tn6 FP ctr inactive | DDE Tn6 confirm inactive
C[C@@H]1CN([C@@H](C)CO)C(=O)c2cc(C3=CCCCC3)cnc2O[C@H]1CN(C)C(=O)Nc1ccc(F)cc1	none (no result: Tn6 DDE FP, Tn7 DDE FP)
O=C(CCN1CCOCC1)N1CCCC(Nc2ccc(F)cc2)C1 (stereo not given)	Tn6 DDE FP 15.2 | DDE Tn6 FP ctr inactive | DDE Tn6 confirm inactive
O=C(C1CC1)N1CCCCN2[C@H](CO)[C@@H](c3ccc(C#CC4(O)CCCC4)cc3)[C@H]2C1	none (no result: Tn6 DDE FP, Tn7 DDE FP)
COc1ccc(S(=O)(=O)N(C)C[C@H]2OCCCC[C@@H](C)Oc3ccc(NS(=O)(=O)c4ccccc4)cc3C(=O)N([C@@H](C)CO)C[C@@H]2C)cc1	none (no result: Tn6 DDE FP, Tn7 DDE FP)
CN(C(=O)c1ccccc1Cl)c1ccccc1	Tn6 DDE FP 15.4 | DDE Tn6 FP ctr inactive | DDE Tn6 confirm inactive
O=C(NCC[C@@H]1CC[C@@H](NS(=O)(=O)c2ccccc2)[C@@H](CO)O1)c1ccc2c(c1)OCO2	none (no result: Tn6 DDE FP, Tn7 DDE FP)
C[C@@H]1CCCCO[C@@H](CN(C)C(=O)CCC(F)(F)F)[C@H](C)CN([C@@H](C)CO)C(=O)c2cc(NS(=O)(=O)c3ccccc3)ccc2O1	none (no result: Tn6 DDE FP, Tn7 DDE FP)
CCN(CC)CCN(C(=O)CCOc1ccccc1)c1nc2ccc(F)cc2s1	Tn6 DDE FP 15.8 (no result: Yeast UUG start, PglD DTNB) | DDE Tn6 FP ctr inactive | DDE Tn6 confirm inactive
CCN(CC)CCN(C(=O)c1ccc2ccccc2c1)c1nc2ccc(F)cc2s1	none
Cc1ccc(S(=O)(=O)Nc2cccc3c2O[C@H](CN(C)Cc2ccc(Oc4ccccc4)cc2)[C@H](C)CN([C@H](C)CO)C3=O)cc1	none (no result: Tn6 DDE FP, Tn7 DDE FP)
COc1ccccc1-n1c(SCC(=O)NC2CCS(=O)(=O)C2)nc2ccccc2c1=O (stereo not given)	Tn6 DDE FP 15.5 | DDE Tn6 FP ctr inactive | DDE Tn6 confirm inactive
C[C@H]1CN([C@@H](C)CO)S(=O)(=O)c2ccc(-c3cncnc3)cc2O[C@H]1CN(C)C(=O)CC1CC1	none (no result: Tn6 DDE FP, Tn7 DDE FP)
COc1nc(-c2ccccc2Cl)ccc1C#N	Tn6 DDE FP 17.8 | DDE Tn6 FP ctr inactive | DDE Tn6 confirm inactive
CCOc1nc(-c2ccc(Cl)cc2Cl)ccc1C#N	none
C/C=C/C(=O)N1CC2(CC(c3cccc(NC(=O)/C(C)=C/C)c3)=NO2)C[C@H]1C(N)=O (stereo not given in full)	Tn6 DDE FP 16.9 | DDE Tn6 FP ctr inactive | DDE Tn6 confirm inactive
Cc1ccc2c(C)c(C(=O)Nc3ccc(S(N)(=O)=O)cc3)oc2c1C	Tn6 DDE FP 26.2 | DDE Tn6 FP ctr inactive | DDE Tn6 confirm inactive
COc1cccc(NC(=O)c2cc3ccccc3cc2OC)c1	Tn6 DDE FP 15.3 | DDE Tn6 FP ctr inactive | DDE Tn6 confirm inactive
COc1cccc(C(=O)Nc2ccc3c(c2)OC[C@@H](C)NC[C@@H](C)[C@H](OC)CN(C)C3=O)c1	none (no result: Tn6 DDE FP, Tn7 DDE FP)
CC[C@]12c3[nH]c4ccc(Cl)cc4c3CCN1C(=O)[C@@H](CC(=O)NC(C)(C)C)C[C@@H]2C(=O)N1CCN(C(=O)c2ccco2)CC1	Tn6 DDE FP 15.8 | DDE Tn6 FP ctr inactive | DDE Tn6 confirm inactive
CC[C@]12c3[nH]c4ccc(Cl)cc4c3CCN1C(=O)[C@@H](CC(=O)NCCCN(C)C)C[C@@H]2C(=O)N1CCN(C(=O)c2ccco2)CC1	none
N#Cc1ccc(OCC(=O)N(C2CCCCC2)C2CCS(=O)(=O)C2)cc1 (stereo not given)	Tn6 DDE FP 15.6 | DDE Tn6 FP ctr inactive | DDE Tn6 confirm inactive
O=C(CSc1ccc(-c2nc3ccccc3[nH]2)cn1)Nc1ccc(S(=O)(=O)N2CCCC2)cc1	Tn6 DDE FP 58.6 (no result: Yeast UUG start, PglD DTNB) | DDE Tn6 FP ctr inactive | DDE Tn6 confirm inactive
CC(=O)Nc1ccc(S(=O)(=O)N2CCC(c3nc4ccccc4[nH]3)CC2)cc1	none
CC(C)(C)C(=O)Nc1ccc(S(=O)(=O)N2CCC(c3nc4ccccc4[nH]3)CC2)cc1	Tn6 DDE FP 18.3 | DDE Tn6 FP ctr inactive | DDE Tn6 confirm inactive
Cc1cc2nc(-c3ccc(SCC(=O)Nc4ccc(S(=O)(=O)N5CCCC5)cc4)nc3)[nH]c2cc1C	none

Screening data (PubChem BioAssay)
